Experimental data taken from patent US20140120167A1, “MULTIFUNCTIONAL CHEMO- AND MECHANICAL THERAPEUTICS” (WILLIAM MARSH RICE UNIVERSITY, priority 2012, published 2014).
Entries after “also recorded” stand apart in the source; their conditions may differ.

What was measured:
[1] = test system: primary HNSCC xenograft tumors (Luciferase-encoded HN31 cells); test: Primary xenograft HNSCC tumor model, single treatment; format: in vivo, mice; conditions: GNP-C225 0.8 μg g^−1 and laser pulses only
Experimental: Primary xenograft HNSCC tumors were induced s.c. by injecting 0.5 min of Luciferase-encoded HN31 cells and was grown to 3-5 mm. Tumors were quantified weekly via their volume (measured with a caliper) and Luciferase-induced bioluminescence (measured via small animal imaging system IVIS Lumina). One group received no treatment (6 animals), other three groups received the following single primary treatments: Quadrapeutic group (11 animals) received GNP-C225s (0.8 μg g^−1) and Doxil-C225 (1 mg kg^−1) via intra-venous concomitant injection. […] Generation of PNBs in tumors was monitored with ultrasound detector during the laser scan (FIG. 6a). […]
Tumor width and length were measured with digital calipers, and the tumor volume was calculated in mm^3 as: Volume=(width)^2×length/2 (See Rofstad, E. K. & Brustad, T. Tumour growth delay following single dose irradiation of human melanoma xenografts. Correlations with tumour growth parameters, vascular structure and cellular radiosensitivity. Br. J. Cancer. 51, 201-210 (1985)). Therapeutic efficacy was calculated as a ratio V1/V2, where V1—averaged tumor volume for animals in untreated group, V2—averaged tumor volume for animals in treated group. Animals were monitored for three weeks after the treatment and were euthanized on reaching a moribund condition.

[2] = preliminary studies
[3] = test system: tumor and adjacent normal tissue; test: GNP clustering in vivo by TEM 24 h after systemic injection; design: species or system mouse; conditions: 0.8 μg g^−1 systemic
Experimental: GNP targeting in vivo. The evaluation of GNP clustering in vivo was done using TEM microscopy (Hitachi H-7500 Electron Microscope) (FIGS. 16a-c). Twenty-four hours after the systemic injection of GNP-C225 conjugates (0.8 μg g^−1), the tumor and adjusted normal tissues were extracted and prepared using the standard technique for TEM imaging.

In the case of “GNP-C225: 60 nm solid gold spheres (colloidal gold) conjugated with anti-EGFR antibody C225 (Erbitux)”, the “tumor growth, PNB group” value [1] is reported as “did not prevent the tumor growth”, the “toxicity in vitro and in vivo” value [2] is reported as “little or no toxicity” and the “GNP clusters in tumor versus normal adjacent tissue (TEM)” value [3] is reported as “big GNP clusters were observed only in the tumor; also recorded: large GNP clusters only in tumors”.
